Experimental data published in patent US20160074291A1, “ANTI-AGING SKIN CARE COMPOSITIONS AND REGIMENS” (The Procter & Gamble Company, priority 2014, published 2016).

Legend:
[1] = tested on: "Repair and Rebuild" associated genes; assay: Eigengene analysis of "Repair and Rebuild" co-expression module; settings: 301 genes, FIG. 9
[2] = tested on: "Clear and Detox" module genes; assay: Eigengene analysis of "Clear and Detox" co-expression module; settings: FIG. 8

Substance	effect on "Repair and Rebuild" eigengene [1]	effect on "Clear and Detox" eigengene [2]
palmitoyl-lysine-threonine [Pal-KT]	up-regulated the eigengene, but to a lesser extent than Pal-KTTS and Olivem® 460	–
palmitoyl-lysine-threonine-threonine-lysine-serine [Pal-KTTKS]	–	up-regulate the eigengene, but to a lesser extent than pal-KT
